The values below come from paper PMC9214538, “The M1 muscarinic receptor is present in situ as a ligand-regulated mixture of monomers and oligomeric complexes” (Proceedings of the National Academy of Sciences of the …, 2022).

Assay [1] deals with M1 receptor and/or M1-mEGFP. The following applies: 1 mM carbachol, membranes from homozygous M1-mEGFP mice.
Another assay deals with M1 receptor. The following applies: transfected cell systems; ref [11], [13]; cited from earlier work.

In the case of `C[N+](C)(C)CCOC(N)=O` [carbachol], the “increase in bound [^35S]GTPγS compared with WT” value in assay [1] is listed as “not different”.
Consider `CN1CCN(CC(=O)N2c3ccccc3C(=O)Nc3cccnc32)CC1` [pirenzepine], for which, in the assay with M1 receptor, the “effect on dimeric and oligomeric fraction of the M1 receptor” value was “increase the dimeric and oligomeric fraction of the M1 receptor”.
